Source: ChEMBL document CHEMBL5360630, “Macrocyclic Peptidomimetic Plasmepsin X Inhibitors with Potent In Vitro and In Vivo Antimalarial Activity” (J Med Chem, 2023)
Calls of active or inactive are those of the source. The calls are words filed in the database; no cut-off is given here.

Amino acid sequences for entries named in this document (tags omitted). A change or cut given only in a name is not applied to a line headed by its entry.
UniProt Q8IAS0: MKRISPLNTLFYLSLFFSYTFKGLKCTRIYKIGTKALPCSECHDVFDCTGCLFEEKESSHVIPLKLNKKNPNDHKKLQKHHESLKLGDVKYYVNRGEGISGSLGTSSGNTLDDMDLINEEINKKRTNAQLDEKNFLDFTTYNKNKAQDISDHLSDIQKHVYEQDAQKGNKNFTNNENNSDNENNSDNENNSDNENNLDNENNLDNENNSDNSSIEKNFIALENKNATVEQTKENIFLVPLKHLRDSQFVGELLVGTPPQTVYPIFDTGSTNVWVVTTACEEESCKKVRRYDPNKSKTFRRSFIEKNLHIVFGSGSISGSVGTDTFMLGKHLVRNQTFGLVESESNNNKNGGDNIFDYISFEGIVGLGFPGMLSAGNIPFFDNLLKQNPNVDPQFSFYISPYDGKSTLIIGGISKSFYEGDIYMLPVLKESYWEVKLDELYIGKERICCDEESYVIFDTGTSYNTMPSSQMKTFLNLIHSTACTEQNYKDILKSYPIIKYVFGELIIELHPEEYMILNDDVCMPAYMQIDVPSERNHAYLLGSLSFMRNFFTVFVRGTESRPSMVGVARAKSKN

How the values were obtained:
[1] = target: Plasmepsin X (Plasmodium falciparum (isolate 3D7)) (UniProt Q8IAS0); details: dose 20.0 nM
[2] = target: Plasmepsin X (Plasmodium falciparum (isolate 3D7)) (UniProt Q8IAS0); details: dose 20.0 nM; remark: listed apart in the source

inhibition [1]	SMILES	inhibition [2]
Active	CCCN1CCCCCc2cccc(c2)C[C@@H]([C@H](O)CNC(C)(C)c2cccc(OC)c2)NC(=O)c2cccc(c2)C1=O	Active
	CCCN1CCCCc2cccc(c2)C[C@@H]([C@H](O)CNC(C)(C)c2cccc(OC)c2)NC(=O)c2cccc(c2)C1=O	inactive
	CCCN1CCCCOc2cccc(c2)C[C@@H]([C@H](O)CNC(C)(C)c2cccc(OC)c2)NC(=O)c2cccc(c2)C1=O	inactive
